Drawing on article PMC5048338, “Discovery of 4,6-disubstituted pyrimidines as potent inhibitors of the heat shock factor 1 (HSF1) stress pathway and CDK9” (Medchemcomm, 2016), this text covers GI50 for one compound.

The test relates to U2OS cells. The experiment in a line: SRB cell growth inhibition assay. It counts as cell-based. Particulars: Homo sapiens, 96 h, read-out: SRB GI50.

In the case of `CCc1cnn2c(NCc3ccc[n+]([O-])c3)cc(N3CCCC[C@H]3CCO)nc12` [Dinaciclib, dinaciclib], the GI50 (commonly the concentration at which growth is held to half of that of the control) turned out to be 6 nM.
